This is an account of results in patent US20170151264A1, “COMBINATION” (Almirall, S.A., priority 2014, published 2017).

By UniProt entry, the sequences of proteins in these tests, tags left out. Where a name states a change or a piece, a line headed by the entry shows the natural chain unless it says otherwise.
UniProt P42336, whole entry: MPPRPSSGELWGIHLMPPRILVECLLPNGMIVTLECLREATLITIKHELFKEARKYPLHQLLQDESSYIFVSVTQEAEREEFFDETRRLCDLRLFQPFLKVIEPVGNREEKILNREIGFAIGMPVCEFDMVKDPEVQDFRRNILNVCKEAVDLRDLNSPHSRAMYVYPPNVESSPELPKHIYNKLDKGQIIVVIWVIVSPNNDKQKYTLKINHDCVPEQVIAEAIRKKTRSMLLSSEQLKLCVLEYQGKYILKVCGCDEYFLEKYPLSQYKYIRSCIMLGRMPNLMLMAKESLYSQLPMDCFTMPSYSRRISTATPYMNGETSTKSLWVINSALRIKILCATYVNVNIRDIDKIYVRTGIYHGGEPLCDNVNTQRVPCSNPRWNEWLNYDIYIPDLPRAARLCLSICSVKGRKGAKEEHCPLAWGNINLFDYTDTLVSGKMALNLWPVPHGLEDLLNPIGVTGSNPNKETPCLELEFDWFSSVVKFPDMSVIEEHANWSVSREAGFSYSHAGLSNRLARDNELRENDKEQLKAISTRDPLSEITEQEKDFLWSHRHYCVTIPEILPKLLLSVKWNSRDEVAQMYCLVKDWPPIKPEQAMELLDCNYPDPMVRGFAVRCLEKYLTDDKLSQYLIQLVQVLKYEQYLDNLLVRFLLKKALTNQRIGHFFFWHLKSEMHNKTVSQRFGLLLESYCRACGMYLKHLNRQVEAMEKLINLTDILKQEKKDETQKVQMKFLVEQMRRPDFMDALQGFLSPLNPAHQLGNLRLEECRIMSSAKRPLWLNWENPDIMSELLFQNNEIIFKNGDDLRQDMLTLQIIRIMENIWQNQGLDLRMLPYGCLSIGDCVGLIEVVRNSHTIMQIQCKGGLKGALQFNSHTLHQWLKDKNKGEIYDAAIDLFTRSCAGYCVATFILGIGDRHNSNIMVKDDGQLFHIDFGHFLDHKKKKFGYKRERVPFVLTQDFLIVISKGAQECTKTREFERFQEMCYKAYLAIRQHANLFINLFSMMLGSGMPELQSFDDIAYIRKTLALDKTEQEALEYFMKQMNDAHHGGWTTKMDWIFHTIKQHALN
UniProt P42338: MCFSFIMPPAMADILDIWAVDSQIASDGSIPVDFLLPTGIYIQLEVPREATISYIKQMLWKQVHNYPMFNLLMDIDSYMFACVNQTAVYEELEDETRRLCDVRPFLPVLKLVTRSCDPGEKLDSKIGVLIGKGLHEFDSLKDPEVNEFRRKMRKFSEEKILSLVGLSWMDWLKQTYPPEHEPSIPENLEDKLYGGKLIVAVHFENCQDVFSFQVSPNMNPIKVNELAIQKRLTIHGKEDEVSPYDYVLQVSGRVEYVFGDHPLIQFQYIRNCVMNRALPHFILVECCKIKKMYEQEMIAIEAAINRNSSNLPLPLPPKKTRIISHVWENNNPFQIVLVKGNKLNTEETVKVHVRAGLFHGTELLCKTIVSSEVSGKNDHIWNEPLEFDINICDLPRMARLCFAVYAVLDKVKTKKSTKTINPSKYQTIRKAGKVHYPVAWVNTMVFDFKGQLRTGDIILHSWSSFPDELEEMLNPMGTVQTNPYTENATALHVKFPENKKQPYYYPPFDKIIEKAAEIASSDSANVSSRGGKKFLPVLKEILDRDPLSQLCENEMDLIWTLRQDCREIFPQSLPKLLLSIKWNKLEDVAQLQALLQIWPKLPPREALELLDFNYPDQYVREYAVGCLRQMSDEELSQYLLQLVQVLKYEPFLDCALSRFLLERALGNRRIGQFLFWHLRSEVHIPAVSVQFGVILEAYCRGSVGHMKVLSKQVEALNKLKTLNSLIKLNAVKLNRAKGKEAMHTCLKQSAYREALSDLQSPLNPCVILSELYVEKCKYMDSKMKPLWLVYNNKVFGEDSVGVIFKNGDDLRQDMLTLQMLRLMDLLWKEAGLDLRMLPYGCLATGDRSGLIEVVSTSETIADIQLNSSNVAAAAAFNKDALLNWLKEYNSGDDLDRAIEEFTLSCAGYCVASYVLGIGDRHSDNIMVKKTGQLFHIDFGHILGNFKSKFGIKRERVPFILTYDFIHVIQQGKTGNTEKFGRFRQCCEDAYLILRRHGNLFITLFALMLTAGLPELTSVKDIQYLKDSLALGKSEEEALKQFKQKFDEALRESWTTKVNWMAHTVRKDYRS
UniProt P48736: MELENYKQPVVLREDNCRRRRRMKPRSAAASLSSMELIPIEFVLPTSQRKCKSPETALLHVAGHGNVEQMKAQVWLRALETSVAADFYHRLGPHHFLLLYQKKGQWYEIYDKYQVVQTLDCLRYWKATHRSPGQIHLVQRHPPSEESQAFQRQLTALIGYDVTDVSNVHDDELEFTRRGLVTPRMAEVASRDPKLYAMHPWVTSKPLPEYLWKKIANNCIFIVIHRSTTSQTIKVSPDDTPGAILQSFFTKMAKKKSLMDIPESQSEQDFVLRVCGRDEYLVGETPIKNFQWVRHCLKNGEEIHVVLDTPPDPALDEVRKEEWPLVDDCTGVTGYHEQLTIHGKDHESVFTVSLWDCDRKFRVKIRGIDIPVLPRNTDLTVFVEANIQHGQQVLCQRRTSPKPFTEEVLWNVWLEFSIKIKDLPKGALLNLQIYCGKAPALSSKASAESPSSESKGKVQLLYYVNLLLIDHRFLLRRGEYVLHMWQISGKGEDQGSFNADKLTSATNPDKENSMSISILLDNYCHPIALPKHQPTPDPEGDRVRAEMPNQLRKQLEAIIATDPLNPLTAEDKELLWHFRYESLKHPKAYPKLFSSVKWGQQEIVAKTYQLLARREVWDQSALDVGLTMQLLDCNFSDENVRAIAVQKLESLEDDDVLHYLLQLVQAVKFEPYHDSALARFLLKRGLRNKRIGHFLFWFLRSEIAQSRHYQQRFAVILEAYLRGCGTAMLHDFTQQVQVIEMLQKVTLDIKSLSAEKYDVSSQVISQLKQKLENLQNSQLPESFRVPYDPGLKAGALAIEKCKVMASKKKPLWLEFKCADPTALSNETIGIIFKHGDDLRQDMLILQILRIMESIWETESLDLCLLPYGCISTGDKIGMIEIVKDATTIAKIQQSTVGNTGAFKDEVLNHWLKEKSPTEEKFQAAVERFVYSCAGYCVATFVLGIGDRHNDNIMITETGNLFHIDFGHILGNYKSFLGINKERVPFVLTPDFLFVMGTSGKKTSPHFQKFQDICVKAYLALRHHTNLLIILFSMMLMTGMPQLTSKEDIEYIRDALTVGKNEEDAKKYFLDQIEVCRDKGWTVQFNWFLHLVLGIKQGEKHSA
UniProt O00329: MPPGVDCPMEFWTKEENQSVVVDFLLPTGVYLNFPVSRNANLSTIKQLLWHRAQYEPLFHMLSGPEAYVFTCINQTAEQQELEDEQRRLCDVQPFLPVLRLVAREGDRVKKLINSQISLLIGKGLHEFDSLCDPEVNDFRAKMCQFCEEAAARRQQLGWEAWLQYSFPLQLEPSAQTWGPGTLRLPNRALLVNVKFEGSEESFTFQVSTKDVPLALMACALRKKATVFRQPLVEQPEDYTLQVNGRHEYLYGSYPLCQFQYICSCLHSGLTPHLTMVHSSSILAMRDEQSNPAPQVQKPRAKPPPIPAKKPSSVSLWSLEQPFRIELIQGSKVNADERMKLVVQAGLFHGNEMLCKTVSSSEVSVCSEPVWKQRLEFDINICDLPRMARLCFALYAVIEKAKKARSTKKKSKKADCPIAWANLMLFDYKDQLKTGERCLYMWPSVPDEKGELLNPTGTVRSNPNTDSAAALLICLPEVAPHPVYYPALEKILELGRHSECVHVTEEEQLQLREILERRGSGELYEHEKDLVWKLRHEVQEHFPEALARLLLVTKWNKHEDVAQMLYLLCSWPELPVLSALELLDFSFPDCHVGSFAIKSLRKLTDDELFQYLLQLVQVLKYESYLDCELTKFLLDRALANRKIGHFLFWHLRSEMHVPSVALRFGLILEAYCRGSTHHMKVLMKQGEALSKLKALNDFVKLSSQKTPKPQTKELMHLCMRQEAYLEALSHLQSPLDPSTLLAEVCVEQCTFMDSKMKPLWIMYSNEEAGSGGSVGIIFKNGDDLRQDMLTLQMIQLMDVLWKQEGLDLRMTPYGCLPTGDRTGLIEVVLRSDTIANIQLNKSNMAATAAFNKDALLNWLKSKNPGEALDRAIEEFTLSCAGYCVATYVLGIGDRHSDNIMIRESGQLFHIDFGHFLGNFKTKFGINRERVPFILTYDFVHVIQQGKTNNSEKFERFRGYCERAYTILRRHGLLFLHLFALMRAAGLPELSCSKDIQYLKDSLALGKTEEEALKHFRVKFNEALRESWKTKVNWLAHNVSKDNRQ

Targets include PI3K p110α (Homo sapiens, UniProt P42336); PI3K p110β (Homo sapiens, UniProt P42338); PI3K p110γ (Homo sapiens, UniProt P48736).
In a further test the target is PI3Kδ (Homo sapiens, UniProt O00329). Briefly: PI3Kδ enzyme residence time. To be noted: p110δ (printed p1105). Type of test: binding.
Test [1] has as its system the other three class I isoforms. Nature of the test: Enzyme residence time, other class I PI3K isoforms. It counts as binding.
The next test deals with PI3K p110δ (Homo sapiens, UniProt O00329). Type of test: biochemical.
For test [2], the system named is autoantibody-mediated cutaneous lesions. Briefly: Immunization-induced mouse model of epidermolysis bullosa acquista (EBA). It counts as in vivo, B6.SJL-H2s mice. The settings on record: 6 week treatment; LAS191954 3 mg/kg/day or methylprednisolone 20 mg/kg/day orally. As for the experimental part: Induction of experimental EBA was performed as described in Iwata H, Bieber K, Tiburzy B et al., J Immunol. 2013; 191:2978-2988. Briefly, 6-10 week B6.SJL-H2s mice were immunized with an emulsion of a recombinant protein encompassing the vWFA2 binding domain of mouse type VII collagen (COL7) in adjuvant (Titermax). After immunization, mice were weekly evaluated for the presence and extend of clinical disease, measured as percentage of body surface affected by skin lesions (erythema, blisters, erosions and crusts).
Treatments were carried out over a 6-week period, and mice were evaluated for the extend of clinical disease (primary endpoint) weekly. Clinical manifestations were scored 0 to 5, corresponding to 0%, <1%, ≧1% to <5%, ≧5% to <10%, ≧10% to <20% of body surface area affected, respectively. Area under Curve (AUC) was calculated from the score at inclusion, 1, 2, 3, 4, 5 and 6 weeks after allocation to treatment. For better comparability between experiments, the affected body surface area at weeks 1-6 was related to that at inclusion (set at 1).
Body weight was monitored weekly during treatment.

Another test addresses PI3Kβ (Homo sapiens, UniProt P42338). The settings on record: HUVEC (PI3Kβ) versus THP-1 (PI3Kδ).

Turning to `C[C@H](Nc1ncnc(N)c1C#N)c1nn2ccc(C#N)c2c(=O)n1-c1ccccc1` [LAS191954, (S)-2-(1-(6-amino-5-cyanopyrimidin-4-ylamino)ethyl)-4-oxo-3-phenyl-3,4-dihydropyrrolo[1,2-f][1,2,4]triazine-5-carbonitrile], at PI3Kδ, the “residence time (time interval in which dissociation of 50% of the inhibitor occurs)” value was determined as 17 min. Further, the results for the residence time (on PI3Kδ (read-out: residence time (time interval in which dissociation of 50% of the inhibitor occurs)); in test [1]) were 12 min and below 1.4 min, respectively. Moreover, the “Selectivity vs PI3Kδ” value on PI3K p110δ amounted to 1 fold; on PI3K p110α it was 3198 fold; on PI3K p110β, 37 fold; on PI3K p110γ, 28 fold. For the same compound, the “clinical severity (body surface area affected by skin lesions relative to inclusion) versus vehicle” value in test [2] is “progressively and significantly (p<0.001 for weeks 4, 5 and 6) reduced the clinical severity”. Further, the “cellular selectivity for the δ isoform” value on PI3Kβ is 38 fold.
